Assay results reported in patent US9914735B2, “Heteroaryl Syk inhibitors” (Boehringer Ingelheim International GmbH, priority 2014, dated 2018).
Where two headings read alike, the source gives them in different places.

The chains behind the UniProt entries cited, without tags or fusion partners. Residues count along the entry.
UniProt P36888, 27-993: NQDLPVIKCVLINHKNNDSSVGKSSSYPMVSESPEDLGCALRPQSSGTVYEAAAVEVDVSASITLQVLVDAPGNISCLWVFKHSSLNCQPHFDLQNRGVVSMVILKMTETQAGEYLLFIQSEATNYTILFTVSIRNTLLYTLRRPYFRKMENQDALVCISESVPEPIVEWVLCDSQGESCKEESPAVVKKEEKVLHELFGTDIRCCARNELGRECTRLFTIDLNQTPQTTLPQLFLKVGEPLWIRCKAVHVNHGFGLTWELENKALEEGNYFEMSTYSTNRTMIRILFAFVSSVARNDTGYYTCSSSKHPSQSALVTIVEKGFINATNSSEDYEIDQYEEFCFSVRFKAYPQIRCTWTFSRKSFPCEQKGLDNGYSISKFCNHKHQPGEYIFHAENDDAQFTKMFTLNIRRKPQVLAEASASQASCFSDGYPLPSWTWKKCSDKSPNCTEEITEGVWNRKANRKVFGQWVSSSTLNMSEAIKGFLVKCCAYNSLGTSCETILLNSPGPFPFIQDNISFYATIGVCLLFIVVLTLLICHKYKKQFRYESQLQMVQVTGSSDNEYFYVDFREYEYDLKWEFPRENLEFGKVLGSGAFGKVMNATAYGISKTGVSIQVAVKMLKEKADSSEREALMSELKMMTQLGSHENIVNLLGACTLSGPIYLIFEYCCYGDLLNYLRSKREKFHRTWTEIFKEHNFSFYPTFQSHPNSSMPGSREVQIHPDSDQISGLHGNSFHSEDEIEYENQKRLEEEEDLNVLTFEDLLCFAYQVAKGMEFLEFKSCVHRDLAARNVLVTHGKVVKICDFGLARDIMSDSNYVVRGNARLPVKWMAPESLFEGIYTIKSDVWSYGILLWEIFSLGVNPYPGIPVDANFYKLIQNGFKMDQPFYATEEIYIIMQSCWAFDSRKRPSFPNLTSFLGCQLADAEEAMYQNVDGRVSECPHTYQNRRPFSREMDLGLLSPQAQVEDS

Key:
FLT3 = FLT3 (Homo sapiens (Human), UniProt P36888); test: FLT3 kinase test (Z'-LYTE); type: biochemical
Experimental: FLT3 is obtained from Invitrogen in 50 mM Tris (pH7.5); 100 mM NaCl; 0.05 mM EDTA, 0.05% NP-40, 2 mM DTT; 50% Glycerol # PV3182; Lot 286671; sequence see below). The enzyme is diluted to 720 nM (35 μg/ml) in enzyme dilution buffer and 10 μl aliquots are stored at −80° C.
The activity of FLT3 is measured using the Z′-LYTETM assay technology from Invitrogen (#PV3191)
The assay is performed in 384 black plates from Corning (#3676) in a final volume of 10 μl by adding 5 μl of kinase peptide mix and 2.5 μl of compound dilution. The reaction is started by addition of 2.5 μl of the 4×ATP solution.
Positive controls are reaction mixtures containing no test compound; negative controls (blanks) are reaction mixtures containing no kinase. As a further control, the phosphopeptide solution is added to wells without kinase (=100% phosphorylation control). The non inhibited kinase reaction will result in a phosphorylation corresponding to 20%-30% of the phosphorylation control.
The reaction is performed for 1 h at room temperature before 5 μl of the development solution is added. After a further incubation for 1 h at room temperature 5 μl of the stop reagent is added. The plates are read on a Flex Station II 384 (Molecular Devices).
To control for any potential inhibition of the protease present in the development solution, the phosphopeptide is incubated with the development solution in the presence of the highest concentration of the test compound (usually 100 μM or 10 μM).
The output text file is evaluated in an “MS-Excel—VB-Makro” and “GraphPadPrism” (Version 5) (GraphPad Software Inc.) is used to calculate the results. Data for the inhibition of FLT3 are reported in M. data for the inhibition of the protease are reported in % CTL.

[1] = target: Recombinant human Syk (amino acids 342-635), GST-Syk kinase fusion protein (Homo sapiens (Human), UniProt P43405); test: Syk kinase test (Kinase Glo luminescence); type: biochemical
Experimental: The output file of the reader is a csv file that contains the well number and measured relative light units (RLU). For data evaluation and calculation, the measurement of the negative control was set as 100% ctrl and the measurement of the positive control was set as 0% ctrl. Based on this values the % value for the measurement of each substance concentration was calculated using an Assay Explorer software (Accelrys). Normally, the % ctrl values calculated are between 0% and 100% values but may also occur outside these limits in individual cases based on variability or compound characteristics. The IC50 values were calculated from the % ctrl values using Assay Explorer software. Calculation:[y=(a−d)/(1+(x/c)^b)+d] a=low value, d=high value; x=conc M; c=IC50 M; b=hill; y=% ctrl.

[2] = read-out: IC50 in μM (FLT3-Inhibition)
[3] = read-out: SYK-inhibition IC50-value
[4] = Table 1, read-out: FLT3-inhibition IC50-value
[5] = Table 1, read-out: SYK-inhibition IC50-value

COc1cc(-c2cc(O[C@H](C)[C@H]3CNC(=O)C3)c3cccnc3c2)ccc1O [11 of WO 2013/014060]
IC50 (FLT3; [2]): 0.738 µM

C[C@@H](Oc1cc(-c2ccc(N3CCOCC3)cc2)cc2nn(C)cc12)[C@H]1CNC(=O)C1 [Example 22, (4R)-4-[(1R)-1-[2-Methyl-6-(4-morpholinophenyl)indazol-4-yl]oxyethyl]-pyrrolidin-2-one]
IC50 ([1]; read-out: IC50 in μM (SYK-Inhibition)): 0.0128 µM | IC50 [1, 3]: 0.0128 µM | IC50 (FLT3; [4]): 1.17 µM | IC50 (FLT3; [2]): 1.17 µM

COc1ccc2[nH]cc(-c3cc4nn(C)cc4c(O[C@H](C)[C@H]4CNC(=O)C4)n3)c2c1 [Example 53, (4R)-4-[(1R)-1-[6-(5-methoxy-1H-indol-3-yl)-2-methyl-pyrazolo[4,3-c]pyridin-4-yl]oxyethyl]pyrrolidin-2-one]
IC50 [1, 5]: 0.0139 µM

C[C@@H](Oc1nc(-c2cnn(C3CCN(C)CC3)c2)cc2nn(C)cc12)[C@H]1CNC(=O)C1 [Example 82, (4R)-4-[(1R)-1-[2-Methyl-6-[1-(1-methyl-4-piperidyl)pyrazol-4-yl]pyrazolo [4,3-c]pyridin-4-yl]oxyethyl]pyrrolidin-2-one]
IC50 [1, 5]: 0.0483 µM

COc1cc(-c2cc3nn(C)cc3c(O[C@H](C)[C@H]3CNC(=O)C3)n2)ccc1OC1CCOCC1 [Example 73, (4R)-4-[(1R)-1-[6-(3-Methoxy-4-tetrahydropyran-4-yloxy-phenyl)-2-methyl-pyrazolo[4,3-c]pyridin-4-yl]oxyethyl]pyrrolidin-2-one]
IC50 [1, 3]: 0.0224 µM

C[C@@H](Oc1cc(-c2cscn2)cc2nn(C)cc12)[C@H]1CNC(=O)C1 [Example 29, (4R)-4-[(1R)-1-(2-methyl-6-thiazol-4-yl-indazol-4-yl)oxyethyl]pyrrolidin-2-one]
IC50 [1, 5]: 0.0492 µM

C[C@@H](Oc1cc(-c2cnn(C3CCNCC3)c2)cc2nn(C)cc12)[C@H]1CNC(=O)C1 [Example 45, (4R)-4-[(1R)-1-[2-Methyl-6-[1-(4-piperidyl)pyrazol-4-yl]indazol-4-yl]oxyethyl]pyrrolidin-2-one]
IC50 [1, 5]: 0.0147 µM | IC50 (FLT3; [4]): 2.04 µM
